The target in this test is Aromatase (Homo sapiens, UniProt P11511).

Amino acid sequences for entries named in this document (tags omitted). A change or cut given only in a name is not applied to a line headed by its entry.
UniProt P11511: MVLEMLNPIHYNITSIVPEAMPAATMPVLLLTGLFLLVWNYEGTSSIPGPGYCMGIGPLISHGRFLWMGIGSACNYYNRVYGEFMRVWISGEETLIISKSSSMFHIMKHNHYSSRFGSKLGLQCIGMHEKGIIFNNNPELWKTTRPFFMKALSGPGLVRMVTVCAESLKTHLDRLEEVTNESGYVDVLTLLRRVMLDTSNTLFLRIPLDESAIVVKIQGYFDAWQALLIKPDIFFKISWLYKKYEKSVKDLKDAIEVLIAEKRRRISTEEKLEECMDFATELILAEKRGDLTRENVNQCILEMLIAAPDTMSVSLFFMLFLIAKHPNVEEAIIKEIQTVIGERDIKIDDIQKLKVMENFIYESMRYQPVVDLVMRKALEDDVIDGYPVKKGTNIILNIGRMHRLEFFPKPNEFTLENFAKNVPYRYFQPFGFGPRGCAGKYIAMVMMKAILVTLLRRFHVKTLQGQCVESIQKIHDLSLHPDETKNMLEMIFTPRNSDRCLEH

Molecule `C[C@]12CCCC=C1CC[C@@H]1[C@@H]2CC[C@]2(C)C(=O)CC[C@@H]12` came in with an inhibition constant Ki of 37 nM.
